Assay results as given in US20260144890A1, “ANTIBODY DRUG CONJUGATE COMPRISING NMT INHIBITOR CONJUGATED TO AN ANTIBODY” (MyricX Pharma Limited, priority 2024, published 2026).

Assays:
[1] = test system: HER2 positive breast cancer cell line, BT474; assay: In vitro cytotoxicity, IncuCyte Sytox Green, BT474; assay type: cell-based; conditions: 50, 3.13 and 0.2 nM, ten days; ADC killing stated at 0.2 nM
Description: Cells were plated in 96 well plates at 10% confluency (8000 for BT474). […] Plates were imaged every four hours for ten days in the IncuCyte S3. Images for % phase (confluence) and green (Sytox Green) were collected and analysed using the IncuCyte software 2022A. Data are presented as green area normalised to phase area (μm^2) over time whilst cells are in log phase proliferation.
Trastuzumab was conjugated to NMT inhibitor 1 (ADO Example 8) and tested for its cytotoxic activity against a HER2 positive breast cancer cell line, BT474 in an in vitro assay. Cells were plated in 96 well plates at 10% confluency (8000 for BT474). The following day cells were treated with ADO Example 8 at 50 nM, 3.13 nM, and 0.2 nM and controls in 250 nM Sytox Green containing medium. Plates were imaged every four hours for ten days in the IncuCyte S3. Images for % phase (confluence) and green (Sytox Green) were collected and analysed using the IncuCyte software 2022A. Data are presented as green area normalised to phase area (μm^2) over time whilst cells are in log phase proliferation.

[2] = test system: gastric cancer organoid GA0429B; assay: Gastric cancer organoid viability (CTG 3D), GA0429B; assay type: cell-based
Description: (§1) Day −1: Patient derived gastric cancer organoids (PDXOs) are sheared to uniform sizes and the required number of organoids are combined 1:1 with 50% Matrigel to produce the right size of the organoids to perform the screen.
(§2) Day 0: Organoid seeding • 1. Collect organoids from each well by adding 20 μl 100× Dispase solution to each well from a 6-well plate, which contains 2 ml of organoid medium. • 2. Put the plates back in the incubator, 37° C. for 30 min. • 3. Collect organoids from all wells and pipet through a pre-wet 100 μm filter into a 50 ml plastic tube. • 4. Once all wells have been filtered over 100 μm filters, filter the flow though over a pre-wet 20 μm filter. • 5. […]
(§3) • 10. Place screening plates back into the incubator before adding compounds and day 0 reading. […] One is for day 0 reading (TO) and the other for reading at the end point.
(§4) Day 0: Compounds treatment and Day 0 baseline CTG (cell titre glo) reading • 11. […] For day 0 reading plate, add 40 μL of CTG 3D per well and read luminescent signal on Envision plate reader.
(§5) Day 6: Endpoint CTG reading. • 1. Read assay plates for luminescent CTG signal at the end of the assays: add 40 μL of CTG 3D per well by Multidrop dispenser, mix the contents for 5 min on the plate shaker, and incubate the plates for 30 min at room temperature in dark. Read luminescent signal on Envision plate reader. […]

[3] = test system: gastric cancer organoid GA6877B; assay: Gastric cancer organoid viability (CTG 3D), GA6877B; assay type: cell-based
Description: as §1, §2, §3, §4, §5

[4] = test system: gastric cancer organoid GA6894B; assay: Gastric cancer organoid viability (CTG 3D), GA6894B; assay type: cell-based
Description: as §1, §2, §3, §4, §5

[5] = test system: gastric cancer organoid GA2434B; assay: Gastric cancer organoid viability (CTG 3D), GA2434B; assay type: cell-based
Description: as §1, §2, §3, §4, §5

[6] = test system: gastric cancer organoid GA3102B; assay: Gastric cancer organoid viability (CTG 3D), GA3102B; assay type: cell-based
Description: as §1, §2, §3, §4, §5

[7] = test system: gastric cancer organoid GA0119B; assay: Gastric cancer organoid viability (CTG 3D), GA0119B; assay type: cell-based
Description: as §1, §2, §3, §4, §5

[8] = test system: gastric cancer organoid GA0091B; assay: Gastric cancer organoid viability (CTG 3D), GA0091B; assay type: cell-based
Description: as §1, §2, §3, §4, §5

[9] = test system: gastric cancer organoid GA6815B; assay: Gastric cancer organoid viability (CTG 3D), GA6815B; assay type: cell-based
Description: as §1, §2, §3, §4, §5

[10] = test system: gastric cancer organoid GA0098B; assay: Gastric cancer organoid viability (CTG 3D), GA0098B; assay type: cell-based
Description: as §1, §2, §3, §4, §5

[11] = test system: gastric cancer organoid GA6833B; assay: Gastric cancer organoid viability (CTG 3D), GA6833B; assay type: cell-based
Description: as §1, §2, §3, §4, §5

[12] = test system: gastric cancer organoid GA0087B; assay: Gastric cancer organoid viability (CTG 3D), GA0087B; assay type: cell-based
Description: as §1, §2, §3, §4, §5

[13] = test system: gastric cancer organoid GA2109B; assay: Gastric cancer organoid viability (CTG 3D), GA2109B; assay type: cell-based
Description: as §1, §2, §3, §4, §5

[14] = test system: gastric cancer organoid GA3055B; assay: Gastric cancer organoid viability (CTG 3D), GA3055B; assay type: cell-based
Description: as §1, §2, §3, §4, §5

[15] = test system: gastric cancer organoid GA6866B; assay: Gastric cancer organoid viability (CTG 3D), GA6866B; assay type: cell-based
Description: as §1, §2, §3, §4, §5

[16] = test system: gastric cancer organoid GA0060B; assay: Gastric cancer organoid viability (CTG 3D), GA0060B; assay type: cell-based
Description: as §1, §2, §3, §4, §5

[17] = test system: gastric cancer organoid GA6891B; assay: Gastric cancer organoid viability (CTG 3D), GA6891B; assay type: cell-based
Description: as §1, §2, §3, §4, §5

[18] = test system: JIMT-1 human breast xenograft; assay: JIMT1 breast cancer xenograft model (Balb/c nude mice, ADC Example 1); assay type: in vivo, mouse
Description: In this study, 72 mice were inoculated subcutaneously in the right front flank region with 1×10^7 viable JIMT-1 tumour cells resuspended in Matrigel (1:1) on Study Day −15. When tumours reached a tumour volume of approximately 120-150 mm^3, 60 mice with the most similarly sized tumours were randomly assigned to 6 treatment groups on Study Day 0. […] The study was terminated on Study Day 58. The dosing regimen was as follows:
The body weight of all mice in each group was measured and recorded three times weekly throughout the duration of the study. Moreover, the tumour volume was measured (mm^3) and recorded using digital calipers three times weekly throughout the duration of the study. In particular, the length, width, and depth of the tumour were each measured and used to calculate tumour volume (mm^3). The results are shown in FIG. 58, FIG. 59, and FIG. 60.

[19] = test system: BT474 breast cancer cells; assay: Orthotopic breast cancer xenograft model (BT474); assay type: in vivo, mouse; conditions: trastuzumab and ADC 2.5 and 5 mg/kg; NMT inhibitor 1 2 mg/kg
Description: NOD/SCID mice were implanted with estrogen pellets (17β-estradiol, 60 day release, 0.36 mg) subcutaneously in the right flank one day before the tumour inoculation. On day −8 each mouse was then inoculated in the right mammary fat pad with 1×10^7 viable BT474 breast cancer cells resuspended in 0.2 mL of Phosphate Buffered Saline mixed with matrigel (1:1). Mice were assigned to treatment groups when tumour volumes averaged 149.78 mm^3 on study day 0. […] The study was terminated on Study Day 35. […] Each group was comprised of 10 mice. Tumour volumes in mice were measured three times per week and tumour volume was calculated using the formula 0.5 (L×W^2). The mean tumour volumes (+SEM) for each study group at each measurement are shown in FIG. 1 and FIG. 2 plotted as Last Observation Carried Forward. Statistical analyses were carried out on tumour readings for Groups 1, 2, 3, 4 and 5 up to Study Day 23 (after this point >50% of the animals within one of the study groups were lost; Group 2) using two-way ANOVA, or a Mixed-Effects model was fitted when values were missing from groups (PRISM GraphPad Software Inc.). Statistical analysis of Group 6 was conducted until day 13 (at this point the study was terminated due to the significant loss of observed body weight). […]
During the study, body weights were measured three times weekly for all animals. […]

Substance	cell killing of BT474 cells [1]	Max_Inhibition [2]	Max_Inhibition [3]	Max_Inhibition [4]	Max_Inhibition [5]	Max_Inhibition [6]	Max_Inhibition [7]	Max_Inhibition [8]	Max_Inhibition [9]	Max_Inhibition [10]	Max_Inhibition [11]	Max_Inhibition [12]	Max_Inhibition [13]	Max_Inhibition [14]	Max_Inhibition [15]	Max_Inhibition [16]	Max_Inhibition [17]	tumour volume compared to vehicle alone ([18]; 5 mg/kg IV on Study Days 0, 7, 28 and 35, agent alone)	mice that completely responded (of 10) ([18]; 5 mg/kg IV, agent alone)	body weights of mice [19]
trastuzumab deruxtecan	effectively killed BT474 cells but was less efficacious than ADC Example 8	41.08%	80.47%	44.79%	21.96%	90.24%	26.83%	−4.07%	63.4%	8.49%	30.23%	42.94%	18.41%	32.59%	85.3%	36.69%	−4.87%	significantly decreased tumour volume	no mice	–
trastuzumab: humanized anti-HER2 monoclonal antibody	–	7.66%	40.47%	28.1%	27.95%	13.75%	12.83%	17.54%	64.47%	15.3%	32.44%	35.31%	34.63%	43.3%	62.62%	34.19%	−1.19%	–	–	did not differ significantly from the vehicle control
